Patent publication EP1296974B1, “2-CYANOPYRROLIDINE DERIVATIVES AND THEIR USE AS MEDICAMENTS” (NOVARTIS AG, priority 2000, dated 2001)
Structures can show the parent of a compound that is named as a salt.

Sequences of proteins named here, by UniProt entry; tags and fusion partners are left off. Residues count along the entry.
UniProt P14740, 37-767 limits assumed: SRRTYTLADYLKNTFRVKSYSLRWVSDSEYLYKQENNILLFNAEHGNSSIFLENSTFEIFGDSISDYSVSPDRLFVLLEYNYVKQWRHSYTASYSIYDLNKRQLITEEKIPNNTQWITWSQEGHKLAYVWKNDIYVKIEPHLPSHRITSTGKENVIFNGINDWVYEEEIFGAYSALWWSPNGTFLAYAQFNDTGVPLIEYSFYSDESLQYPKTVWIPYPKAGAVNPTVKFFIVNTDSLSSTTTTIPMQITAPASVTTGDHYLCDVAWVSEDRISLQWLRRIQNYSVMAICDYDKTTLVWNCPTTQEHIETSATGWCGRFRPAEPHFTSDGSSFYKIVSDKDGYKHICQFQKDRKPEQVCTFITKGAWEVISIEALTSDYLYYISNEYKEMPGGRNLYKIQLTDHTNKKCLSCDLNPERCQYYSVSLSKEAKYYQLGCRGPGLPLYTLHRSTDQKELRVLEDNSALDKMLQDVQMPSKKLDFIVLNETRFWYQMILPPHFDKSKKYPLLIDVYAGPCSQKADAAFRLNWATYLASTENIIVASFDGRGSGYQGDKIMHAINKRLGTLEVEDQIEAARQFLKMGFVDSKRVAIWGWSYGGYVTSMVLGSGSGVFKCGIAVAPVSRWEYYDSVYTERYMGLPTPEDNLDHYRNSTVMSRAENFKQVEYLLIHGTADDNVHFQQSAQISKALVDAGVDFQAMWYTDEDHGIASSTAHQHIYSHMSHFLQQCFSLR

Biological target: T1, rat plasma DPP-IV (Rattus norvegicus, UniProt P14740)
T1 construct: 5 µl of plasma are added to 96-well flat-bottom micortiter plates; from tissue; host or cells: rat plasma
Assay: DPP-IV activity in rat plasma (modified Kubota assay)
Assay type: biochemical

Row | IC50 [nM] | Compound
1 | 4 | N#Cc1ccc(NC2CCC(NCC(=O)N3CCC[C@H]3C#N)CC2)nc1 (stereo partly drawn) [Ex. 2L, 1-[[[4-[(5-cyano-2-pyridinyl)amino]cyclohexyl]amino]acetyl]-2-cyano-(S)-pyrrolidine, dihydrochloride]
2 | 11 | N#C[C@@H]1CCCN1C(=O)CNC1CCC(Nc2nc3ccccc3s2)CC1 (stereo partly drawn) [Ex. 2V, 1-[[[4-[(2-benzothiazolyl)amino]cyclohexyl]amino]acetyl]-2-cyano-(S)-pyrrolidine, dihydrochloride]
3 | 20 | N#C[C@@H]1CCCN1C(=O)CNC1CCC(NC(=O)C2CCCCC2)CC1 (stereo partly drawn) [Ex. 2X, 1-[[[4-[(cyclohexylcarbonyl)amino]cyclohexyl]amino]acetyl]-2-cyano-(S)-pyrrolidine monohydrochloride]
4 | 20 | N#C[C@@H]1CCCN1C(=O)CNC1CCN(C(=O)C2CCCCC2)CC1 [Ex. 4A, 1-[[[1-(cyclohexylcarbonyl)-4-piperidinyl]amino]acetyl]-2-cyano-(S)-pyrrolidine, monohydrochloride]
